The values below are quoted from earlier work in patent US9050475B2, “High SPF sunscreen compositions” (MD SOLARSCIENCES CORP., priority 2010, dated 2015).

For this data set the following is noted: known UV-A or UV-B protection properties of FDA-approved sunscreens.

This is a selection: effects in other tests are not listed, and their absence says nothing.

With triethanolamine salicylate, the “Range Covered” value was “UV-B (UV-B: 290-320 nm)”.
